Test results as given in patent US9730938B2, “Bruton's tyrosine kinase inhibitor combinations and uses thereof” (Pharmacyclics LLC, priority 2014, dated 2017).

Tested on: OCI-LY-10
Assay: Combined drug treatment cell viability, CellTiter-Glo assay (Example 2)
Settings: ibrutinib 0.256 nM; JAK3 10 μM / MCL-1 3 μM / medium alone; 3 days

C=CC(=O)N1CCC[C@@H](n2nc(-c3ccc(Oc4ccccc4)cc3)c3c(N)ncnc32)C1 [ibrutinib, 1-((R)-3-(4-amino-3-(4-phenoxyphenyl)-1H-pyrazolo[3,4-d]pyrimidin-1-yl)piperidin-1-yl)prop-2-en-1-one]
luminescence (CellTiter-Glo): 40290.71
